Laboratory results published in patent US10442819B2, “Tricyclic compounds as inhibitors of mutant IDH enzymes” (Merck Sharp & Dohme Corp., priority 2014, dated 2019).

Amino acid sequences for entries named in this document (tags omitted).
UniProt O75874, whole entry R132H: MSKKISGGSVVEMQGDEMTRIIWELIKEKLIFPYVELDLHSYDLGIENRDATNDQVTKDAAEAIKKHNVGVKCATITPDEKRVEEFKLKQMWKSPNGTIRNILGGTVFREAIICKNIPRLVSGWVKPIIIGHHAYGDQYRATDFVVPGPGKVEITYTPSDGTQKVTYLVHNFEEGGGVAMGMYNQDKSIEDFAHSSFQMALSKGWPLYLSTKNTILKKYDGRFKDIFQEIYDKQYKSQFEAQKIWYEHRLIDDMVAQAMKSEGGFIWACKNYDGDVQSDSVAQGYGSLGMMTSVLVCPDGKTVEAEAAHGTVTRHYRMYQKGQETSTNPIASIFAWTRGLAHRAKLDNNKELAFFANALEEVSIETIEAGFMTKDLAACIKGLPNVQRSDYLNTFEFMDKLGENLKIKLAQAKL

Biological target: R132H mutant IDH1 enzyme (Homo sapiens (Human), UniProt O75874, R132H)
Test: R132H IDH1 Enzymatic Assay
Assay type: biochemical
Settings: R132H mutant IDH1 enzyme 1.5 nM final; luminescence readout; read-out: IC50

IC50 | Structure (SMILES)
31 nM | CO[C@@H]1C[C@H](C)[C@H](C(=O)N2Cc3cccnc3Nc3ccc(N4CCOCC4)cc32)C[C@@H]1C [Example 107, 6-{[(1R,2S,4R,5S)-4-methoxy-2,5-dimethylcyclohexyl]car-bonyl}-8-morpholin-4-yl-6,11-dihydro-5H-pyrido[2,3-b][1,5]benzodiazepine]
123 nM | CO[C@H]1CC[C@H](C(=O)N2Cc3cccnc3Nc3ccc(N4CCO[C@@H]5CCC[C@H]54)cc32)CC1 [Example 291, 8-[(4aR,7aR)-hexahydrocyclopenta[b][1,4]oxazin-4(4aH)-yl]-6-[(trans-4-methoxycyclohexyl)carbonyl]-6,11-dihydro-5H-pyrido[2,3-b][1,5]benzodiazepine]
30 nM | CC(C)O[C@H]1CC[C@H](C(=O)N2Cc3cccnc3Nc3ccc(C4COC5CC5O4)cc32)OC1 (single isomer, unassigned) [Example 30]
418 nM | CO[C@H]1CC[C@@H](C(=O)N2Cc3cccnc3Nc3ccc(CN(C)C4COC4)cc32)CC1 [Example 486, N-({6-[(cis-4-methoxycyclohexyl)carbonyl]-6,11-dihydro-5H-pyrido[2,3-b][1,5]benzodiazepin-8-yl}-methyl)-N-methyloxetan-3-amine]
506 nM | O=C([C@H]1CC[C@H](NC2(C(F)(F)F)CC2)CO1)N1Cc2cccnc2Nc2ccc(N3CCOCC3)cc21 [Example 482, (8-morpholino-5,11-dihydro-6H-benzo[b]pyrido[2,3-e][1,4]diazepin-6-yl)((2R,5S)-5-((1-(trifluoromethyl)cyclopropyl)amino)tetrahydro-2H-pyran-2-yl]methanone]
71 nM | O=C([C@H]1CC[C@H](c2ccccc2)CC1)N1Cc2cccnc2Nc2ccc(N3CCOCC3)cc21 [Example 128, 8-morpholin-4-yl-6-[(trans-4-phenylcyclohexyl)carbon-yl]-6,11-dihydro-5H-pyrido[2,3-b][1,5]benzodiazepine]
64 nM | O=C([C@H]1CC[C@@H](N2CC(F)(F)C(F)(F)C2)CC1)N1Cc2cccnc2Nc2ccc(N3CCOCC3)cc21 [Example 470, 8-morpholin-4-yl-6-{[cis-4-(3,3,4,4-tetrafluoropyrrolidin-1-yl)cyclohexyl]carbonyl}-6,11-dihydro-5H-pyrido[2,3-b][1,5]benzodiazepine]
12 nM | CC(C)(C)O[C@H]1CC[C@H](C(=O)N2Cc3cccnc3Nc3ccc(N4C[C@H]5CC[C@@H]4CO5)cc32)OC1 (single isomer, unassigned) [Example 330]
691 nM | C[C@@H](N[C@H]1CC[C@@H](C(=O)N2Cc3cccnc3Nc3ccc(N4CCOCC4)cc32)CC1)C(F)(F)F [Example 442, cis-4-[(8-morpholin-4-yl-5,11-dihydro-6H-pyrido[2,3-b][1,5]benzodiazepin-6-yl)carbonyl]-N-[(1R)-2,2,2-trifluoro-1-methylethyl]cyclohexanamine]
273 nM | CO[C@H]1CC[C@H](C(=O)N2Cc3cccnc3Nc3ccc(C(=O)N4CCCC4)cc32)CC1 [Example 3, 6-[(Trans-4-methoxycyclohexyl)carbonyl]-8-(pyrrolidin-1-ylcarbonyl)-6,11-dihydro-5H-pyrido[2,3-b][1,5]benzodiazepine]
26 nM | CC(C)O[C@H]1CC[C@H](C(=O)N2Cc3cccnc3Nc3ccc(C4CCCO4)cc32)CC1 (stereo partly drawn) [Example 526, [Trans-4-(propan-2-yloxy)cyclohexyl][8-(tetrahydrofuran-2-yl)-5,11-dihydro-6H-pyrido[2,3-b][1,5]benzodiazepin-6-yl]methanone]
294 nM | CC(C)OC1CCN(C(=O)N2Cc3cccnc3Nc3ccc(N4CCOCC4)cc32)CC1 [Example 554, 6-{[4-(1-methylethoxy)piperidin-1-yl]carbonyl}-8-morpholin-4-yl-6,11-dihydro-5H-pyrido[2,3-b][1,5]benzodiazepine]
660 nM | COCCC1CN(c2ccc3c(c2)N(C(=O)[C@H]2CC[C@H](OC)CC2)Cc2cccnc2N3)CCO1 (stereo partly drawn) [Example 259, 6-[(trans-4-methoxycyclohexyl)carbonyl]-8-[2-(2-methoxyethyl)morpholin-4-yl]-6,11-dihydro-5H-pyrido[2,3-b][1,5]benzodiazepine]
613 nM | CO[C@H]1CC[C@H](C(=O)N2Cc3cccnc3Nc3ccc(N4CCCC4)cc32)CC1 [Example 227, 6-[(trans-4-methoxycyclohexyl)carbonyl]-8-pyrrolidin-1-yl-6,11-dihydro-5H-pyrido[2,3-b][1,5]benzodiazepine]
807 nM | CC1CCCCC1C(=O)N1Cc2cccnc2Nc2ccc(N3CCOCC3)cc21 (centres unmarked) [Example 85, 6-[(2-methylcyclohexyl)carbon-yl]-8-morpholin-4-yl-6,11-dihydro-5H-pyrido[2,3-b][1,5]benzodiazepine]
36 nM | CC(C)O[C@H]1CC[C@H](C(=O)N2Cc3cccnc3Nc3ccc(C4COC5CC5O4)cc32)OC1 (single isomer, unassigned) [Example 29]
26 nM | O=C(C1CCN(CC(F)(F)C(F)F)CC1)N1Cc2cccnc2Nc2ccc(N3C[C@@H]4C[C@H]3CO4)cc21 [Example 342, 8-[(1S,4S)-2-oxa-5-azabicyclo[2.2.1]hept-5-yl]-6-{[1-(2,2,3,3-tetrafluoropropyl)piperidin-4-yl]carbonyl}-6,11-dihydro-5H-pyrido[2,3-b][1,5]benzodiazepine]
139 nM | CC[C@@H](N[C@H]1CC[C@@H](C(=O)N2Cc3cccnc3Nc3ccc(N4CCOCC4)cc32)CC1)C(F)(F)F [Example 452, cis-4-[(8-morpholin-4-yl-5,11-dihydro-6H-pyrido[2,3-b][1,5]benzodiazepin-6-yl)carbonyl]-N-[(1R)-1-(trifluoromethyl)propyl]-cyclohexanamine]
273 nM | CN(CC(F)(F)F)[C@H]1CC[C@H](C(=O)N2Cc3cccnc3Nc3ccc(N4CCOCC4)cc32)CC1 [Example 504, trans-N-methyl-4-[(8-morpholin-4-yl-5,11-dihydro-6H-pyrido[2,3-b][1,5]benzodiazepin-6-yl)carbonyl]-N-(2,2,2-trifluoroethyl)cyclohexanamine]
488 nM | CO[C@@H]1CC[C@H](C(=O)N2Cc3cccnc3Nc3ccc(N4CCOCC4)cc32)[C@H](C)[C@@H]1C (single isomer, unassigned) [Example 109]
327 nM | CO[C@H]1CN(c2ccc3c(c2)N(C(=O)[C@H]2CC[C@H](OC)CC2)Cc2cccnc2N3)CC[C@@H]1F (single isomer, unassigned) [Example 214]
61 nM | [2H]C([2H])([2H])C([2H])(O[C@H]1CC[C@H](C(=O)N2Cc3cccnc3Nc3ccc(N4CCOCC4)cc32)CC1)C([2H])([2H])[2H] [Example 125, [8-(morpholin-4-yl)-5,11-dihydro-6H-pyrido[2,3-b][1,5]benzodiazepin-6-yl]{trans-4-[(^2H7)propan-2-yloxy]cyclohexyl}metha-none]
175 nM | CO[C@]1(C)CCC[C@@H](C(=O)N2Cc3cccnc3Nc3ccc(N4CCOCC4)cc32)CC1 [Example 135, 6-{[(1R,4R)-4-methoxy-4-methylcycloheptyl]car-bonyl}-8-morpholin-4-yl-6,11-dihydro-5H-pyrido[2,3-b][1,5]benzodiazepine]
203 nM | O=C([C@H]1CC[C@@H](NC(C2CC2)C(F)(F)F)CC1)N1Cc2cccnc2Nc2ccc(N3CCOCC3)cc21 (stereo partly drawn) [Example 446, cis-N-[1-cyclopropyl-2,2,2-trifluormoethyl]-4-[(8-morpholin-4-yl-5,11-dihydro-6H-pyrido[2,3-b][1,5]benzodiazepin-6-yl)carbonyl]cyclohexanamine]
1390 nM | CO[C@H]1CC[C@H](C(=O)N2Cc3cccnc3Nc3ccc(C#N)cc32)CC1 [Example 434, 6-[(Trans-4-methoxycyclohexyl)carbonyl]-6,11-dihydro-5H-pyrido[2,3-b][1,5]benzodiazepine-8-carbonitrile]
9 nM | O=C(C1CCN(CC(F)(F)F)CC1)N1Cc2cccnc2Nc2ccc(N3CC4CCC3CO4)cc21 (centres unmarked) [Example 320, 8-(2-oxa-5-azabicyclo[2.2.2]oct-5-yl)-6-{[1-(2,2,2-trifluoroethyl)piperidin-4-yl]carbonyl}-6,11-dihydro-5H-pyrido[2,3-b][1,5]benzodiazepine]
26 nM | CC(C)O[C@H]1CC[C@H](C(=O)N2Cc3cccnc3Nc3ccc(N4C[C@]5(C)C[C@H]4CO5)cc32)OC1 [Example 48, ((2R,5S)-5-isopropoxytetrahydro-2H-pyran-2-yl)(8-((1S,4S)-1-methyl-2-oxa-5-azabicyclo[2.2.1]heptan-5-yl)-5,11-dihydro-6H-benzo[b]pyrido[2,3-e][1,4]diazepin-6-yl)methanone]
84 nM | O=C(C1CCN(CC(F)(F)F)CC1)N1Cc2cccnc2Nc2ccc(N3CCOCC3)cc21 [Example 112, 8-morpholin-4-yl-6-{[1-(2,2,2-trifluoroethyl)piperidin-4-yl]carbonyl}-6,11-dihydro-5H-pyrido[2,3-b][1,5]benzodiazepine]
669 nM | O=C(C1CC=CCC1)N1Cc2cccnc2Nc2ccc(N3CCOCC3)cc21 (centres unmarked) [Example 522, Cyclohex-3-en-1-yl[8-(morpholin-4-yl)-5,11-dihydro-6H-pyrido[2,3-b][1,5]benzodiazepin-6-yl]methanone]
36 nM | CC(C)(C)[C@H]1CC[C@H](C(=O)N2Cc3cccnc3Nc3ccccc32)CC1 [Example 70, 6-[(trans-4-tert-butylcyclohexyl)carbon-yl]-6,11-dihydro-5H-pyrido[2,3-b][1,5]benzodiazepine]

Structure (SMILES) | IC50
CC(C)O[C@H]1CC[C@H](C(=O)N2Cc3cccnc3Nc3ccc(C4CCO[C@@H]4C)cc32)OC1 (single isomer, unassigned) [Example 531, ((2R,5S)-5-isopropoxytetrahydro-2H-pyran-2-yl)(8-((2S,3R or 2R,3S)-2-methyltetrahydrofuran-3-yl)-5H-benzo[b]pyrido[2,3-e][1,4]diazepin-6(11H)-yl)methanone] | 13 nM
CC(C)O[C@H]1CC[C@H](C(=O)N2Cc3cccnc3Nc3ccc(C4CCO[C@H]4C)cc32)OC1 (single isomer, unassigned) [Example 530, ((2R,5S)-5-isopropoxytetrahydro-2H-pyran-2-yl)(8-((2S,3R or 2R,3S)-2-methyltetrahydrofuran-3-yl)-5H-benzo[b]pyrido[2,3-e][1,4]diazepin-6(11H)-yl)methanone] | 29 nM
